For this assay, the target named is CXCR7 (Homo sapiens, UniProt P25106). Nature of the assay: PathHunter CHO-K1 CXCR7 b-arrestin recruitment assay (CXCR7 agonistic activity). The settings on record: read-out: CXCR7 EC50, PathHunter CHO-K1 CXCR7 b-arrestin cell line. Here is the method: The CXCl12 receptor and CXCR7 agonistic activities of the compounds of formula (I) are determined in accordance with the following experimental method.
The assay is using the PathHunter™ CHO-K1 CXCR7 b-arrestin cell line from DiscoverX. The system is based on the Enzyme Fragment Complementation Technology. Two complementing fragments of the b-galactosidase enzyme are expressed within stably transfected cells. The larger portion of b-gal, termed EA for Enzyme Acceptor, is fused to the C-terminus of b-arrestin 2. The smaller fragment, termed ProLink™ tag, is fused to CXCR7 at the C-terminus. Upon activation, b-arrestin is recruited which forces the interaction of ProLink and EA, allowing complementation of the two fragments of b-gal and the formation of a functional enzyme which is capable of hydrolysing the substrate and generating a chemiluminescent signal.
CHO-K1 CXCR7 b-arrestin cells are detached from culture dishes with a cell dissociation buffer (Invitrogen, #13151-014) and collected in growing medium (F12 HAMS 90% (v/v)/FCS 10% (v/v), Penicillin/streptomycin 1% (v/v)). 5000 cells per well (in 20 μl) are seeded in a 384 well plate (white-walled, clear bottom; BD Falcon #353274). […] Luminescent signal is read in a microplate reader (FLUOstar Optima, bmg). The calculated EC50 values may fluctuate depending on the daily cellular assay performance. […]

Chains of the proteins cited; added tags and fusions are not shown.
UniProt P25106, whole entry: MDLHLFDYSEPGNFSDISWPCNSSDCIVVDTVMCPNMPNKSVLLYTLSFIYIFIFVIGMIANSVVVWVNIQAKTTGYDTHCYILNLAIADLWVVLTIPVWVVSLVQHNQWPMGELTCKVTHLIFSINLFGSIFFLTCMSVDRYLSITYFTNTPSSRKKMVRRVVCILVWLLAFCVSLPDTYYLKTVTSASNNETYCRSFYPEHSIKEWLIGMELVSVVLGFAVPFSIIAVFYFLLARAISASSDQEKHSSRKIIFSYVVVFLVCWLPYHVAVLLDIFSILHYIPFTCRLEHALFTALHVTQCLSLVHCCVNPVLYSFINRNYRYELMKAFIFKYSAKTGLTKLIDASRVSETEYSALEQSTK
UniProt P32121, whole entry partner: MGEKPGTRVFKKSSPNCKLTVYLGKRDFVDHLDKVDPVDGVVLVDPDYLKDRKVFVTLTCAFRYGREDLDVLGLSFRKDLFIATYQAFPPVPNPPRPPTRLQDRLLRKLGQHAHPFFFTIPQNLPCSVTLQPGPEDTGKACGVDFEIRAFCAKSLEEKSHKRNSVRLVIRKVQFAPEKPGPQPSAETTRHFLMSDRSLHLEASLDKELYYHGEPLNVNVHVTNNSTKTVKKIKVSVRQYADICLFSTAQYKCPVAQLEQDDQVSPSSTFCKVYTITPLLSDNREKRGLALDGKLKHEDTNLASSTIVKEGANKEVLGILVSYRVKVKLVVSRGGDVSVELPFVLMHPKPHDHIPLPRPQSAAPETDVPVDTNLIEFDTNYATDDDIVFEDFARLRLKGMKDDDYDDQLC

From patent publication US9920010B2, “CXCR7 receptor modulators” (IDORSIA PHARMACEUTICALS LTD, priority 2013, dated 2018) come the findings set out here.

As for `CN1CCN(C(=O)/C=C/c2cccc3c2CCN(CC2CC2)C3)C(c2ccccc2)C1` (centres unmarked), the concentration giving a half-maximal response (EC50) was 285 nM.
Turning to `CNCCN(Cc1ccccc1C(F)(F)F)C(=O)CNc1cccc2c1CCN(C(=O)COC)C2`, the EC50 is 13 nM.
